Laboratory results from publication PMC8149352, “The pharmacokinetics of pamiparib in the presence of a strong CYP3A inhibitor (itraconazole) and strong CYP3A inducer (rifampin) in patients with solid tumors: an open-label, parallel-group phase 1 study” (Cancer Chemotherapy and Pharmacology, 2021).

Experiment: Part A safety: adverse events (NCI CTCAE v5.0), safety population
Type: in vivo, human (patients with advanced solid tumors)
Details: Part A (N = 12); by treatment period
Protocol: This was an open-label, parallel-group, phase 1 study consisting of a 2-part core phase and an extension phase. Only results for the core phases are reported herein (Supplementary Fig. 1). Part A of the core phase assessed the effect of the strong CYP3A inducer rifampin on the PK of pamiparib in patients with advanced solid tumors. Patients received a single dose of oral pamiparib 60 mg on days 1 and 10, and oral rifampin 600 mg QD on days 3–11. Patients fasted for at least 8 h before and at least 4 h after receiving pamiparib and rifampin. Blood samples for PK analysis were obtained on days 1 and 10 at predose, and at 0.5, 1, 2, 4, 6, 9, 12, 24, and 48 h postdose. Pamiparib plasma concentrations were determined using a validated liquid chromatography–mass spectrometry/mass spectrometry method (lower limit of quantification 1.0 ng/mL) at Covance Laboratory Services (Salt Lake City, Utah).
Adverse events (AEs) were monitored throughout the study and were graded according to the National Cancer Institute Common Terminology Criteria v5.0.
The safety population included all patients who received at least one dose of pamiparib. […] Plasma PK parameters were calculated from pamiparib concentration–time profiles using standard noncompartmental methods. PK parameters were calculated using Phoenix WinNonlin v6.4 or higher (Certara, Princeton, NJ, USA). […]

CO[C@H]1/C=C/O[C@@]2(C)Oc3c(C)c(O)c4c(O)c(c(/C=N/N5CCN(C)CC5)c(O)c4c3C2=O)NC(=O)/C(C)=C\C=C\[C@H](C)[C@H](O)[C@@H](C)[C@@H](O)[C@@H](C)[C@H](OC(C)=O)[C@@H]1C [Rifampin, rifampin]
All TEAEs (any grade), patients: 2 (16.7) n (%)
